Assay outcomes (PubChem)
PGC1a acetyl inh: lowers PGC1a acetylation signal in U2OS cells. AlphaScreen anti-acetyl-lysine; with virally co-expressed GCN5 acetyltransferase. inhibition, % at 15.6 µM. 350,000 tested, 0.17% active. AID 651687;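 active = every replicate shows inhibition of at least 40%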;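 also: 0% = neutral control wells and 100% = positive control wells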
hiPSC survival: hiPSC single-cell survival enhancement. ATPlite luminescence; 100% = ROCK inhibitor wells, 0% = DMSO. survival enhancement, % at 20 µM. 360,000 tested, 0.044% active; in the data active = survival enhancement above about 18%;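 also: cells exposed to compounds for 16 hours before the ATP read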
C2C12 statin: suppressors of simvastatin-induced myotoxicity in C2C12 myotubes | ATP luminescence, 48 h; scaled: DMSO 0, geranylgeraniol control 100 | rescue of ATP level, % at 7.49 µM | 330,000 tested, 0.78% active | AID 602340;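 active = mean ATP rescue above about 67%, or every replicate alone reaching that limit, limit read from the data, passing the limit was not always enough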;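 also: myotubes were challenged with 10 µM simvastatin during compound exposure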
UUG fidelity: alters start codon recognition fidelity in yeast; AID 602363; activity score, % at 18.7 µM; 350,000 tested, 0.13% active; S. cerevisiae UUG-firefly luciferase reporter, luminescence/redox ratio;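 active means replicate mean at a twofold rise or more, about +100% in these data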;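 further: firefly luciferase made from a UUG start codon reports start codon fidelity; reporter light over untreated wells divided by growth signal over untreated wells; some hits fall short of that in this replicate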
FN deposit inh: fibronectin deposition inhibition. 350,000 tested, 0.086% active. inhibition, % at 12.6 µM. AH1F fibroblasts, Alexa488-fibronectin deposition fluorescence, overnight;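 active = mean inhibition across replicates of 30% or more, regardless of how many single replicates reach that level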;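 also: positive control wells lacked labelled fibronectin entirely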
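material = AH1F fibroblast monolayer depositing Alexa488-labelled fibronectin into matrix | amount = 10000 AH1F cells/well | buffer or medium = DMEM plus 2% serum, read in PBS | incubation = 1 h cell adhesion before compound, then overnight fibronectin incubation | detection = fluorescence at 485 nm excitation, 525 nm emission | evaluation = percent inhibition as loss of matrix-bound fibronectin fluorescence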
Active calls of the source: *; nt = no result. A selection: hits, their analogues and other compounds. The true share with any hit is near 0.91%.

(1) C[C@H]1CN([C@@H](C)CO)C(=O)c2cc(C#Cc3ccccn3)cnc2O[C@@H]1CN(C)C(=O)CCN1CCCCC1
(2) C[C@@H]1COCn2nncc2CC[C@H](Cc2ccccc2)C(=O)N1
(3) CC(C)CC#Cc1ccc2c(c1)O[C@H](CN(C)Cc1cccnc1)[C@@H](C)CN([C@@H](C)CO)S2(=O)=O
(4) CC(=O)Nc1sc2c(c1C#N)CCC(C)C2 (stereo unspecified)
(5) Cc1ccc(-c2ccc3c(c2)O[C@@H](CN(C)C(=O)CC2CC2)[C@H](C)CN([C@@H](C)CO)S3(=O)=O)cc1
(6) Brc1ccc2nc(-c3ccc(CN4CCC5(CC4)CNc4ccccc45)cc3)c(-c3ccccc3)nc2c1

Compound,1,2,3,4,5,6
C2C12 statin,0,nt,-26,111*,-7,nt
hiPSC survival,nt,nt,nt,0,nt,nt
FN deposit inh,nt,-10,-18,-5,-11,-15
UUG fidelity,2,nt,nt,-8,nt,nt
PGC1a acetyl inh,-7,nt,-13,8,-6,nt

(7) Cc1ccc2nc(Cl)c3nnnn3c2c1
(8) Cc1ccc2nc(N3CCN(c4cccc(C)c4C)CC3)c3nnnn3c2c1
(9) CC=Cc1ccc2n(c1=O)C[C@@H]1[C@@H](CO)[C@H](C(=O)NCC(F)(F)F)[C@H]2N1C(C)=O (mixture of isomers)
(10) CCOC(=O)c1sc(=S)n(-c2ccc(Cl)cc2)c1SC
(11) CCN(CC)C(=O)CN(c1ccc(F)c(Cl)c1)S(C)(=O)=O
(12) C[C@@H]1CN([C@H](C)CO)C(=O)c2cc(NC(=O)Nc3ccc(C(F)(F)F)cc3)ccc2O[C@@H](C)CCCCO[C@@H]1CN(C)C(=O)C1CCCCC1

Compound,7,8,9,10,11,12
C2C12 statin,nt,nt,-10,105*,70*,nt
hiPSC survival,30*,1,nt,-1,-1,nt
FN deposit inh,nt,2,nt,-9,nt,nt
UUG fidelity,-21,nt,nt,-27,-17,-15
PGC1a acetyl inh,-23,3,nt,-2,7,14

Complete entries, looked up by structure. Values in the order: C2C12 statin, hiPSC survival, FN deposit inh, UUG fidelity, PGC1a acetyl inh
Cc1ccc(-c2ccc3c(c2)O[C@@H](CN(C)C(=O)CC2CC2)[C@H](C)CN([C@@H](C)CO)S3(=O)=O)cc1 as listed: -7, nt, -11, nt, -6
Brc1ccc2nc(-c3ccc(CN4CCC5(CC4)CNc4ccccc45)cc3)c(-c3ccccc3)nc2c1 as listed: nt, nt, -15, nt, nt

(further entries)
(13) Cc1ccccc1S(=O)(=O)N[C@@H]1CC[C@@H](CCn2cc(Cc3ccccc3)nn2)O[C@H]1CO
(14) O=S(=O)(N[C@@H]1CC[C@@H](CCn2cc(Cc3ccccc3)nn2)O[C@H]1CO)c1ccccc1F
(15) C[C@@H]1CN([C@H](C)CO)C(=O)c2cc(NS(C)(=O)=O)ccc2O[C@H]1CN(C)Cc1ccc(C(F)(F)F)cc1
(16) CCN1C(C#N)=C(C#N)N=C(C)CC1(C)C
(17) COCC(=O)N1C[C@H](C)[C@H](OC)CN(C)C(=O)c2cc(NS(C)(=O)=O)ccc2OC[C@H]1C
(18) O=C(NCC(=O)N(Cc1ccccc1)C(C(=O)NC1CCCCC1)c1ccco1)c1ccco1 (stereo unspecified)

Compound,13,14,15,16,17,18
C2C12 statin,-1,7,-2,nt,-13,110*
hiPSC survival,nt,nt,nt,0,nt,1
FN deposit inh,-4,-8,nt,-4,-12,nt
UUG fidelity,-10,nt,-12,nt,-12,-4
PGC1a acetyl inh,61*,-2,-3,109*,9,9

(19) COc1ccc(C(C(=O)NC2CCCC2)N(Cc2ccccc2)C(=O)CNC(=O)c2ccco2)cc1 (stereo unspecified)
(20) CCOC(=O)CN(C(=O)CNC(=O)c1ccco1)C(C(=O)NC1CCCC1)c1ccccc1OCC (stereo unspecified)
(21) CCOC(=O)CN(C(=O)CNC(=O)c1ccco1)C(C(=O)NC1CCCCC1)c1cccs1 (stereo unspecified)
(22) C[C@@H]1CN([C@@H](C)CO)C(=O)c2cc(NC(=O)C3CCCCC3)ccc2O[C@@H]1CN(C)Cc1ccc(C(=O)Nc2ccccc2N)cc1
(23) COc1ccc2c3c(n(C)c2c1)[C@H](CO)N(C(=O)c1cccnc1)CC31CCN(C(=O)c2cccnc2)CC1
(24) C[C@H](CO)N1C[C@H](C)[C@@H](CN(C)C(=O)c2cccc(F)c2)Oc2ncc(-c3ccncc3)cc2C1=O

Compound,19,20,21,22,23,24
C2C12 statin,5,-6,124*,nt,nt,2
hiPSC survival,-2,-1,-1,nt,nt,nt
FN deposit inh,9,-6,6,nt,nt,nt
UUG fidelity,14,8,1,12,nt,3
PGC1a acetyl inh,-12,-6,-7,0,-3,4

(25) O=C(/C=C/c1cccc2ccccc12)NCCC1=CCCCC1
(26) Cc1ccc2[nH]c(=O)c(CN(CCCN3CCOCC3)C(=O)NC3CCCCC3)cc2c1
(27) CCc1ccc2[nH]c(=O)c(CN(CCN3CCCC3)C(=O)NC3CCCCC3)cc2c1
(28) CCC12CC3CC(C1)CC(C(=O)NNC(N)=O)(C3)C2
(29) COc1cccc(C(=O)NCC(=O)N2CCC(C)CC2)c1
(30) CC1CCN(C(=O)CNC(=O)c2cccc(OC(F)F)c2)CC1

Compound,25,26,27,28,29,30
C2C12 statin,82*,-5,95*,106*,99*,-15
hiPSC survival,2,1,-2,0,7,0
FN deposit inh,nt,nt,nt,-2,nt,-8
UUG fidelity,-14,-14,17,-11,-18,27
PGC1a acetyl inh,-4,nt,4,13,-1,1
